Binding of CDR-mutated scFvs to a peptide of the spike HR2 region

Data: MIT Lincoln Laboratory AlphaSeq set, Engelhart et al. 2022, doi:10.1038/s41597-022-01779-4, as distributed in FLAb.

Target: peptide PDVDLGDISGINAS, taken from heptad repeat 2 (HR2) of SARS-CoV-2 spike.

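In library AAYL51, one, two or three CDR residues were substituted; doubles and triples were drawn at random. AlphaSeq pools MATa yeast showing the antibodies with MATalpha yeast showing the peptide. After mating in shaken culture at 30 °C for 16 h, diploids were selected and their barcode pairs sequenced. A regression on co-assayed BCL2-family reference pairs converts the normalised counts of each replicate to an apparent Kd. Each pool was mated in three replicate cultures.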

Parent scFv Ab-91: VL joined to VH by a 15-residue (Gly4Ser)3 linker. Changes lie in the heavy chain CDRs alone.
VL: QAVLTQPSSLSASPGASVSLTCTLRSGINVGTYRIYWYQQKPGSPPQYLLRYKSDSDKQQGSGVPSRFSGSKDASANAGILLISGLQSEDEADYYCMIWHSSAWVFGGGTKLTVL
VH: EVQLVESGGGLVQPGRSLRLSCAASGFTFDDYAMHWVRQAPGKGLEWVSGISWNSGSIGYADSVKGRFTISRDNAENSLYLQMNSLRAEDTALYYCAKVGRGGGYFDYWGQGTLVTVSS

Each variant is given by its three heavy chain CDRs, as the data file delimits them; those of the parent are GFTFDDYAMH, GISWNSGSIGYADSVK, VGRGGGYFDY. Every variant below is changed at Y60 of the VH (sequential numbering). Each Kd is an estimate from the mating assay, the geometric mean of the replicates in which the pair was seen; lower is stronger. An entry "no signal" has no value in the source: the pair was not observed among the diploids in any replicate. This suggests poor binding but is not conclusive. As a blank, each scFv also met three strains without target: over library AAYL51, 21% of these pairings were detected, typically at 34 µM and seldom below 1.8 µM. The control count says in how many pairings with the empty strains this scFv gave a signal.

With GFMFDDYAPH / GISWNSGSIGRADSVK / VGRGGGYFDY the result was 3.0 µM (1 of 3 replicates; controls 4 of 9).
With GFTFDLYNMH / GISWNSGSIGSADSVK / VGRGGGYFDY the result was 46 µM (1 of 3 replicates; controls 5 of 9).
With GFHFDDYAMH / GISWNSGSIGWADTVK / VGRGGGYFDY the result was 210 µM (1 of 3 replicates; controls 2 of 9).
With GFTFDDYAMH / GINWNSGSRGQADSVK / VGRGGGYFDY the result was no signal (0 of 3 replicates; controls 0 of 9).
With GFTFTDYAMH / GISWNSGSIGIAQSVK / VGRGGGYFDY the result was no signal (0 of 3 replicates; controls 0 of 9).
With GFTFDDYAMY / GISWNSGSIGCADSAK / VGRGGGYFDY the result was no signal (0 of 3 replicates; controls 2 of 9).
With GFVFDDYAMH / GISWNSGSIGMADSMK / VGRGGGYFDY the result was 84 nM (3 of 3 replicates; controls 2 of 9).
With GFTFTDYAMH / GISPNSGSIGEADSVK / VGRGGGYFDY the result was 14 µM (1 of 3 replicates; controls 2 of 9).
With GFTFDDYAMH / GISWNSGSIGIADSVK / LHRGGGYFDY the result was 92 µM (2 of 3 replicates; controls 4 of 9).
With GFTFDDYAMH / GISWNSGIIGIADSVV / VGRGGGYFDY the result was no signal (0 of 3 replicates; controls 1 of 9).
With GFTFDDYAMH / GISWNSGCSGPADSVK / VGRGGGYFDY the result was 81 µM (2 of 3 replicates; controls 2 of 9).
With GFTFDDYAMH / GIYWNSGSIGQADSVK / VGSGGGYFDY the result was no signal (0 of 3 replicates; controls 4 of 9).
With GFTFDDYAMH / GISWNSGSIGFADSVK / GGRGTGYFDY the result was 10 µM (1 of 3 replicates; controls 2 of 9).
With GFVFDDYAMH / GISWNSGSIGFADSNK / VGRGGGYFDY the result was no signal (0 of 3 replicates; controls 1 of 9).
With QFTFDDYAMH / GISWNSGSIGCADSVK / VDRGGGYFDY the result was 560 µM (1 of 3 replicates; controls 0 of 9).
With GFTIDDYAMH / GISWNSGSIMRADSVK / VGRGGGYFDY the result was no signal (0 of 3 replicates; controls 0 of 9).
With GFTFDDYAMH / TISWNSGSIGMADSVK / VGRGGDYFDY the result was 40 µM (2 of 3 replicates; controls 3 of 9).
With GFTFDDYAMH / GISWNSGSIGCADSVK / AGRGGGYFDY the result was 110 µM (2 of 3 replicates; controls 1 of 9).
With GFTFDDYAMR / GISWDSGSIGQADSVK / VGRGGGYFDY the result was no signal (0 of 3 replicates; controls 2 of 9).
With GFTFDDYAMH / GISLNSGSIGPADSVK / VGRGGGYFDY the result was 82 µM (2 of 3 replicates; controls 6 of 9).
With TFTFDDYAMH / GISWNSLSIGAADSVK / VGRGGGYFDY the result was 130 µM (3 of 3 replicates; controls 3 of 9).
With GFTFDDYACH / GISWNSSSIGAADSVK / VGRGGGYFDY the result was 55 µM (2 of 3 replicates; controls 4 of 9).
With GFTCDDYAMH / GGSWNSGSIGDADSVK / VGRGGGYFDY the result was 120 µM (2 of 3 replicates; controls 4 of 9).
With GFTFDDYAMS / GISWNSGSIGMADSVK / VGRGGGYFDF the result was no signal (0 of 3 replicates; controls 1 of 9).
With GFTFDDYAMH / GISWNSGSIGAADDVK / VGRGGGYFDY the result was 2.1 µM (3 of 3 replicates; controls 4 of 9).
With GFTFDDYAMH / GISLCSGSIGDADSVK / VGRGGGYFDY the result was no signal (0 of 3 replicates; controls 1 of 9).
With GFTFDDYAMH / GISWNSGSIGEADSVK / VIRGGGYFDY the result was 62 nM (3 of 3 replicates; controls 2 of 9).
With GFTFDDYAMY / GIGWNSGSIGKADSVK / VGRGGGYFDY the result was 15 µM (1 of 3 replicates; controls 1 of 9).
With SCTFDDYAMH / GISWNSGSIGTADSVK / VGRGGGYFDY the result was 45 µM (2 of 3 replicates; controls 2 of 9).
With GFTFDDYAMH / GISWNSGSIWPADSVK / VGRGGGYSDY the result was 7.2 µM (2 of 3 replicates; controls 2 of 9).
With GFTFDQYAMH / GISWNSESIGQADSVK / VGRGGGYFDY the result was 10 nM (3 of 3 replicates; controls 3 of 9).
With GFTFDDYAMH / GISWNSGSIVWADSVK / VGRGGGYFDQ the result was no signal (0 of 3 replicates; controls 3 of 9).
With GDTFDDYAMH / GISWNSGSIGGADSVK / CGRGGGYFDY the result was no signal (0 of 3 replicates; controls 0 of 9).
With GFTFDDYAMH / GISWNSGSISTADSVK / VGRGHGYFDY the result was 420 µM (1 of 3 replicates; controls 3 of 9).
With GFTFDDHAMH / GISWNSGSIGSADSVK / VGRGGGYFHY the result was no signal (0 of 3 replicates; controls 1 of 9).
With GFTFDDYAMH / GLSWNSGSIGSAVSVK / VGRGGGYFDY the result was no signal (0 of 3 replicates; controls 0 of 9).
With GFTFDDYAMH / GISWWSGSIGMADSVK / VGRGGGYFDY the result was 110 µM (2 of 3 replicates; controls 4 of 9).
With TDTFDDYAMH / GISWNSGSIGSADSVK / VGRGGGYFDY the result was 2.3 µM (1 of 3 replicates; controls 0 of 9).
With GFTFDDYAMH / GISWNSGSIGFADSVK / VGRLGGYQDY the result was 26 µM (1 of 3 replicates; controls 2 of 9).

The first 3 entries again:

CDR-H1	CDR-H2	CDR-H3	apparent Kd	seen in	empty controls
GFMFDDYAPH	GISWNSGSIGRADSVK	VGRGGGYFDY	3.0 µM	1 of 3	4 of 9
GFTFDLYNMH	GISWNSGSIGSADSVK	VGRGGGYFDY	46 µM	1 of 3	5 of 9
GFHFDDYAMH	GISWNSGSIGWADTVK	VGRGGGYFDY	210 µM	1 of 3	2 of 9

Parent in this assay: reference entry 72 nM, copy in this library 7.5 nM.